Our source for the ΔTm values is paper PMC6344228 (2019).

Sequences of proteins named here, by UniProt entry; tags and fusion partners are left off.
UniProt P06493, whole entry: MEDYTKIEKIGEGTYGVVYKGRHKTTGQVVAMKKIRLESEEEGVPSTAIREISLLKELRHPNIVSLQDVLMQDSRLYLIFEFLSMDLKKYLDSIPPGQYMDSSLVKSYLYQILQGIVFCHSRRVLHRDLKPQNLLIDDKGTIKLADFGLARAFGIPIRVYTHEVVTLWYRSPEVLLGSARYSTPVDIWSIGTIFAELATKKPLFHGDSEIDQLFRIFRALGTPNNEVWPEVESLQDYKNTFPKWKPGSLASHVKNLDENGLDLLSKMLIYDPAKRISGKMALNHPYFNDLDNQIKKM

The target in this test is monomeric CDK1 (Homo sapiens, UniProt P06493). Nature of the test: Differential scanning fluorimetry (DSF), CDK1. The class given is binding. Particulars: read-out: ΔTm CDK1.

Molecules are shown by their SMILES.

For the compound `COc1ccc2c(c1)/C(=C/c1cnc[nH]1)C(=O)N2` [SU9516], the ΔTm at 10 µM was -1.5 °C.
